Measured values from patent US4272507A, “Phenylaminothiophenacetic acids, their synthesis, compositions and use” (priority 1978, dated 1981).

Columns and labels:
[1] = system: yeast-induced fever in rats; experiment: Antipyretic action: yeast-induced fever in rats; assay type: in vivo, rats (female Sprague-Dawley); conditions: LD50 7 days
Experimental: The antipyretic action is determined by the influence of the compounds to be tested on yeast-induced fever in rats.
Hyperthermia is produced in female Sprague-Dawley rats (in groups of 5 animals; weight of each animal: 160 to 180 g) by subcutaneous injection (neck) of 10 ml/kg of a 20 percent strength aqueous brewer's yeast suspension (brewer's yeast "Heliosan"/Hefereformwerk Radolfzell). 24 hours after the yeast injection, the compounds to be tested are administered orally to the animals in a volume of liquid of 5 ml/kg, and a control group receives the corresponding amount of tapwater. The feed (Altromin®R, water ad libitum) was withdrawn from the rats 18 hours beforehand. The rats are kept at about 23° C.
The body temperature is recorded 1 hour before administration of the substance and at hourly intervals after administration of the substance.
[…] The body temperature is measured with a temperature probe (Tastomed H, Braun electronic).

[2] = in vivo; conditions: rat, po

Compound: O=C(O)Cc1csc(Cl)c1Nc1c(Cl)cccc1Cl [Compound 10, 5-chloro-4-(2,6-dichloroanilino)-3-thiophenacetic acid]
- Therapeutic quotient LD50/ED2.5 [1]: > 40
- LD50 at 168 h [2]: > 20 mg/kg
